Results from PMC2199305 (Environmental Health Perspectives, 2007).

Protein sequences, listed by entry. Tags and fused reporters are not part of them. Residues count along the entry.
UniProt P62508, 233-457 limits assumed: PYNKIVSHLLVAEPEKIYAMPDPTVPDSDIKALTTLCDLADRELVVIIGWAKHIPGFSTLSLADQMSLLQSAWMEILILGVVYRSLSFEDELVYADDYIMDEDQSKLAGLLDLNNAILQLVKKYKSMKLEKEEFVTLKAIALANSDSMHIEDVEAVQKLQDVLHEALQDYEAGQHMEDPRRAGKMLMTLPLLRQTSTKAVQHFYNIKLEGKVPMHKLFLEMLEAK

Molecular target: recombinant human ERR-γ –LBD (GST-ERR-γ –LBD) (Homo sapiens, UniProt P62508)
Assay: Saturation binding assay of [3H]BPA with Scatchard plot analysis
Settings: tested as the radiolabelled form

CC(C)(c1ccc(O)cc1)c1ccc(O)cc1 [BPA, 2,2-bis(4-hydroxyphenyl)propane]
receptor density (Bmax) (Scatchard plot of [3H]BPA saturation binding): 14.4 nmol/mg protein | Specific binding to ERR-γ (nonspecific binding determined with 10 μM unlabeled BPA): approximately 80%
